Data taken from patent publication US20150320880A1, “ANTIBODY DRUG CONJUGATES” (NOVARTIS AG, priority 2013, published 2015).

Columns and labels:
GIST430 cell line = test: Combination dose-matrix cell viability (CellTiter Glo, Loewe model); format: cell-based; details: NEG085-MCC-DM1 in combination with the compound, 120 h
Protocol: (§1) Relative inhibition of cell viability was calculated for every dose combination. Using either the Chalice software (Zalicus, Cambridge Mass.) or ComboExplorer application (Novartis, Basel CH), the response of the combination was compared to its single agents, against the widely used Loewe model for drug-with-itself dose-additivity (Lehar et al. Nat. Biotechnol. (2009) 27: 659-666; Zimmermann et al., Drug Discov. Today (2007) 12: 34-42). Excess inhibition compared to additivity can be plotted as a full dose-matrix chart to visualize the drug concentrations where synergies occur. Synergistic combinations produced regions of excess inhibition within the dose-matrix. […] “Additivity” was found when the combination generated the same inhibition of cell viability response when compared to the response with the single agent by itself “Synergy” was indicated when the inhibition of cell viability was greater than the response of the single agent compared with itself. Alternatively, “Additivity” was indicated with a Loewe score of less than 5, and “Synergy” was indicated by a Loewe score of greater than 5.
(§2) Cell viability was determined by measuring cellular ATP content using the CellTiter Glo luminescence assay (Promega, Madison Wis.). […] Luminescence values were used to calculate the inhibition of cell viability relative to DMSO-treated cells (0% inhibition).

GIST882 cell line = test: as above; format: cell-based; details: NEG085-MCC-DM1 in combination with the compound, 120 h
Protocol: as §1, §2

SMILES: Cc1ccc(NC(=O)c2ccc(CN3CCN(C)CC3)cc2)cc1Nc1nccc(-c2cccnc2)n1 [Imatinib]
- GIST430 cell line (GIST430 cell line): Synergy (“Synergy” was indicated by a Loewe score of greater than 5)
- GIST882 cell line (GIST882 cell line): Additivity (“Additivity” was indicated with a Loewe score of less than 5)
